Source: ChEMBL document CHEMBL1287723, “The discovery of new spirocyclic muscarinic M3 antagonists” (Bioorg Med Chem Lett, 2010)

Organism: Homo sapiens
Experiment: Fraction unbound in human plasma

fraction unbound: 0.57
Structure (SMILES): Cc1nc(C(=O)N2CCOC3(CCN(Cc4ccc(Cl)cc4)CC3)C2)cs1
